The source of these data is publication PMC11876601 (Molecular Systems Biology, 2025).

Experiment [1] relates to 13 PDAC cell lines. The experiment can be described thus: Phenotypic drug combination viability screen (ATPlite, 72 h), cell line panel. It is filed as cell-based, human. The procedure:
Cell viability was assessed by measuring ATP levels to indicate metabolic activity.
Afterward, small amounts were transferred to 384-well intermediate plates (Greiner Bio-One GmbH, Germany). […] For drug combination screening, 1000 to 5000 cells were seeded into 384-well plates (CulturPlate™, Perkin Elmer, MA, USA) using a Multidrop™ Combi Reagent Dispenser (Thermo Scientific, MA, USA) in 50 µl medium per well 24 h prior to drug treatment (seeding densities see Appendix Table S1). […] The final DMSO concentration in each well was 0.2%. […] Eight wells per plate without library drug served as negative controls, and sixteen wells per plate containing 5 µM Staurosporine served as positive controls. Control plates not containing any drug were used to correct for incubation effects, and data quality was assessed by calculation of Z-prime of positive and negative controls according to1 Z-prime=1−3SDpos+3SDneg/[…] where SD is the standard deviation. […] Dose–response curves from the experimental and hypothetical data were compared, and shifts in AUC were used to describe combination effects (AUC∆ = AUChypothetical − AUCexperimental). […] Only combinations with R^2 > 0.8 in both conditions were considered in the synergy analysis.
For orientation: ATP-based viability assays read luminescence as a measure of living cells.

For experiment [2], the system named is AsPC-1 cells. Nature of the experiment: Cell proliferation assay, chemodrug + ATR inhibitor (Incucyte confluence, 72 h).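 Note: underlying read-out for every value is AsPC-1 confluence after 72 h incubation at 37 °C and 5% CO2, divided by that well's starting confluence.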

In the case of `CN(C)CCCOc1ccc(-c2ccc3ncc4c(c3c2)n(C2CCOCC2)c(=O)n4C)cn1` [AZD-0156], in experiment [1], the “median ΣAUC∆ across all cell lines” value was below 2% and the “synergy with GEM (Bliss model, ΣAUC∆ > 10%)” value is reported as “did not synergize”.

In the case of `Nc1ccn([C@@H]2O[C@H](CO)[C@@H](O)C2(F)F)c(=O)n1` [GEM, Gemcitabine], the “Raw data (confluence at 72 h/confluence at 0 h)” value (“Raw data” for short) in experiment [2] (Berzosertib experiment, replicate R3, titrated drug dose 300 nM) is on record as 1.71; in experiment [2] (Berzosertib experiment, replicate R3, titrated drug dose 1000 nM) it was 1.8; in experiment [2] (Berzosertib experiment, replicate R3, titrated drug dose 3000 nM) it was 1.68; in experiment [2] (Berzosertib experiment, replicate R1, titrated drug dose 1000 nM), 1.69; in experiment [2] (Berzosertib experiment, replicate R1, titrated drug dose 3000 nM), 1.73; in experiment [2] (Berzosertib experiment, replicate R2, titrated drug dose 100 nM), 1.85. Also, the “Raw data” value in experiment [2] (Berzosertib experiment, replicate R2, titrated drug dose 300 nM) came out at 1.87; in experiment [2] (Berzosertib experiment, replicate R2, titrated drug dose 1000 nM), 1.78; in experiment [2] (Berzosertib experiment, replicate R2, titrated drug dose 3000 nM) it was 1.62; in experiment [2] (Ceralasertib experiment, replicate R1, titrated drug dose 300 nM), 1.87; in experiment [2] (Ceralasertib experiment, replicate R1, titrated drug dose 1000 nM), 1.67; in experiment [2] (Ceralasertib experiment, replicate R1, titrated drug dose 3000 nM) it was 1.72. For the same molecule, the “Raw data” value turned out to be 1.83 in experiment [2] (Ceralasertib experiment, replicate R2, titrated drug dose 1000 nM); 1.66 in experiment [2] (Ceralasertib experiment, replicate R2, titrated drug dose 3000 nM); 1.67 in experiment [2] (Experiment (ATRi) Elimusertib, replicate R1, drug dose (titrated) 300 nM); 1.86 in experiment [2] (Experiment (ATRi) Elimusertib, replicate R2, drug dose (titrated) 300 nM); 1.79 in experiment [2] (Experiment (ATRi) Elimusertib, replicate R2, drug dose (titrated) 1000 nM); 1.67 in experiment [2] (Experiment (ATRi) Elimusertib, replicate R2, drug dose (titrated) 3000 nM). The “Raw data” value in experiment [2] (Experiment (ATRi) Elimusertib, replicate R3, drug dose (titrated) 300 nM) is listed as 1.81; in experiment [2] (Experiment (ATRi) Elimusertib, replicate R3, drug dose (titrated) 1000 nM) it was 1.69; in experiment [2] (Experiment (ATRi) Elimusertib, replicate R3, drug dose (titrated) 3000 nM), 1.67; in experiment [2] (Experiment (ATRi) Gartisertib, replicate R1, drug dose (titrated) 1000 nM), 1.78; in experiment [2] (Experiment (ATRi) Gartisertib, replicate R1, drug dose (titrated) 3000 nM), 1.7; in experiment [2] (Gartisertib experiment, replicate R3, titrated drug dose 1000 nM), 1.87. In addition, the “Raw data” value in experiment [2] (titrated drug dose 100 nM, replicate R3, experiment (ATRi) Ceralasertib, AsPC-1, 72 h) came to 1.81; in experiment [2] (titrated drug dose 300 nM, replicate R3, experiment (ATRi) Ceralasertib, AsPC-1, 72 h) it was 1.81; in experiment [2] (titrated drug dose 3000 nM, replicate R3, experiment (ATRi) Ceralasertib, AsPC-1, 72 h), 1.61.
